Target: T1, HLA-A2.1 (Homo sapiens, UniProt P04439, D140Y/D185E/D98H/E176V/E277Q/G131W/G231S/I119V/I121R/I166T/I218V/L300P/L318F/N151K/N90K/P208A/P217A/Q86G/Q94H/R138H/R169H/T345S)
T1 construct: endogenous in cells; host or cells: 174CEM.T2
Format: cell-based

KLPQLCTEL [HPV16 peptide 1]
FI (Fluorescence Index): 1.6
MF (mean HLA-A2.1 fluorescence): 168.6
